The results in this text go back to article PMC11360180, “Enhancement of Antimicrobial Function by L/D-Lysine Substitution on a Novel Broad-Spectrum Antimicrobial Peptide, Phylloseptin-TO2: A Structure-Related Activity Research Study” (Pharmaceutics, 2024).

Where “and” joins values, the source holds several entries; their conditions need not be identical. Identical values can stand only once.

Settings in all cases: 5 × 10^5 CFU/mL, 24 h, absorbance 550 nm
For one assay, the system named is S. aureus (ATCC 6538). It is filed as cell-based, Staphylococcus aureus. The source says: (§1) Seven microorganism strains were used to preliminarily evaluate the antimicrobial activity of PSTO2 and its analogues, including Staphylococcus aureus (S. aureus) (ATCC® 6538), methicillin-resistant Staphylococcus aureus (MRSA) (NCTC® 12493), Enterococcus faecalis (E. faecalis) (NCTC® 12697), E. coli (ATCC® 8739), Klebsiella pneumonia (K. pneumonia) (ATCC® 43816), Pseudomonas aeruginosa (P. aeruginosa) (ATCC® CRM 9027), Acinetobacter baumanni (A. baumanni) (BAA® 747), and Candida albicans (C. albicans) (ATCC® 10231). In this study, the strains were cultured in Mueller–Hinton broth (MHB), nutrient broth (NB), and yeast–peptone–dextrose broth (YPD-B) correspondingly at 37 °C, with shaking at 120 rpm. Each peptide was dissolved from 128 μM to 1 μM and mixed with the bacterium at 5 × 10^5 CFU/mL. […]
(§2) After being incubated for 24 h, a Synergy HT plate reader (Bio-Tek, Shoreline, WA, USA) was used to detect the absorbance of each well in the 96-well plate at λ = 550 nm. The concentration at which no visible turbidity could be recorded was the MIC value. […] The plate was checked the next day for colony formation, and the lowest concentration at which no colony growing was recorded as an MBC value.

The next assay deals with MRSA (NCTC 12493). It is filed as cell-based, methicillin-resistant Staphylococcus aureus.
Text: as §1, §2

The subject of a further assay is E. coli (ATCC 8739). Type of assay: cell-based, Escherichia coli.
Text: as §1, §2

For assay [1], the system named is P. aeruginosa (ATCC 9027). Type of assay: cell-based, Pseudomonas aeruginosa.
Text: as §1, §2

As usually defined, the MIC is the lowest concentration that inhibits growth of the organism. For the molecule `CC[C@H](C)[C@H](NC(=O)CN)C(=O)NCC(=O)N[C@@H](C)C(=O)N[C@H](C(=O)N[C@@H](CC(C)C)C(=O)N[C@@H](CCCCN)C(=O)N[C@H](C(=O)N[C@@H](CC(C)C)C(=O)N[C@H](C(=O)N[C@H](C(=O)NCC(=O)N[C@@H](CC(C)C)C(=O)N1CCC[C@H]1C(=O)N[C@@H](C)C(=O)N[C@@H](CC(C)C)C(=O)N[C@H](C(=O)N[C@@H](CO)C(=O)N[C@@H](Cc1c[nH]c2ccccc12)C(=O)N[C@H](C(=O)N[C@@H](CCCCN)C(=O)N[C@@H](CCCNC(=N)N)C(=O)N[C@@H](CCCCN)C(=O)N[C@@H](CCCNC(=N)N)C(=O)N[C@@H](CCC(N)=O)C(=O)N[C@@H](CCC(N)=O)C(N)=O)[C@@H](C)CC)[C@@H](C)CC)[C@@H](C)O)[C@@H](C)O)C(C)C)C(C)C` [Mellitin, melittin, reference compound], the MIC is 5.7 µg/mL and 2 µM with S. aureus (ATCC 6538); 2 µM in the assay with MRSA (NCTC 12493); 4 µM in the assay with E. coli (ATCC 8739); 16 µM in assay [1].
